A selection: hits, their analogues and other compounds. The true share with any hit is near 1.7%.
Pin1 inh: blocks the human prolyl isomerase Pin1 | Q13526 | Pin1 FP peptide displacement, HiFluor488, 10 min | Potency, µM (series often up to 115 µM), actives largely listed as inhibitors | 0.009% of 390,000 active | AID 504891; active = well fitted inhibition curve with a large enough effect in the polarisation, with a control signal flat, not every such curve was filed as active; inconclusive = small, poorly fitted or top-dose-only effect, or effect the other way, or a change in a side signal; inactive = no such curve, though single readings can be large or run the other way; the % refers to the polarisation
PTHR1 agonist: activates the human parathyroid hormone receptor PTHR1 | 0.075% of 410,000 active | Potency, µM (titrated, usually from 115 µM), most hits filed as activators | Q03431 | HEK293 GP2 PTHR1 cells, GloSensor cAMP luminescence, 1 h | AID 743266; also: nearly all actives have a fitted effect of over 55% in size
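HEK-293-derived GP2 cells expressing PTHR1 and a GloSensor cAMP reporter, 3,000/well, plated overnight, given luciferin plus IBMX (each 0.5 mM as added) for 1 h at 37 °C, then compound for 1 h at 37 °C. Luminescence was read after 15 min at room temperature.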
GLP1R cytotox: cytotoxicity in counter-screen for GLP-1R inverse agonists; HEK293 cAMP-luciferase reporter cells, luminescence, 24 h; 0.13% of 410,000 active; AID 624418; Potency, µM (doses to about 38.3 µM), usual class: inhibitors;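 also: loss of luciferase light is scored as toxicity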
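Compound-treated cells are incubated 24 hr at 37 deg C under 5% CO2 after a 12 hour attachment period, then luciferase detection reagent is added and luminescence is measured following 12 min at room temperature; lowered signal indicates toxicity.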
GLP-1R agonist: activates the human GLP-1 receptor. Potency, µM (titrated, usually from 45.6 µM), hits mostly activators. P43220. 0.007% of 380,000 active. HEK293 GLP-1R CRE-luciferase, luminescence, 4-6 h; cells express a hypersensitive GLP-1R form
GLP1R inv ag: inverse agonists of human GLP-1 receptor; Potency, µM (doses to about 38.3 µM), hits mostly inhibitors; 1.6% of 410,000 active; HEK293 GLP-1R CRE-luciferase, luminescence, 24 h; GLP-1R form is constitutively active; P43220; also: nearly all actives have a fitted effect of over 55% in size
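HEK293 cells stably co-expressing a cAMP-responsive luciferase reporter and constitutively active GLP-1R were seeded, incubated 12 h, then exposed to compounds for 24 h at 37 C. Luminescence was read 12 min after detection reagent; inverse agonists lower signal.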
miR-21 reporter: miR-21 reporter, rising signal; HeLa miR-21 FLuc reporter, luciferase, 48 h; Potency, µM (doses to about 38.3 µM); 340,000 tested, under 10 active; AID 2288; active = well fitted rising curve with a large enough effect; inconclusive = small, poorly fitted or top-dose-only effect; inactive = no such curve, though single readings can be large or run the other way;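 further: miR-21 action dims this reporter so a rising signal means less miR-21 action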
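HeLa miR-21-FLuc reporter line, endogenous miR-21; 2000 cells/well in DMEM/10% FBS; compound titration up to ~40uM final, 48 h, 37 degree Celsius; luciferase detection reagent, 15 min lysis, CCD luminescence.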
Numbers stand for hits; – = inactive; ? = inconclusive; · = no result. Unless noted, calls follow the shape of the dose curve; as a rule, active = well fitted curve in the direction sought with a large enough effect; inconclusive = small, poorly fitted or top-dose-only effect, or another doubt; inactive = no such curve, though single readings can be large; an effect the other way counts as inactive or inconclusive.

SMILES	Pin1 inh	PTHR1 agonist	GLP1R cytotox	GLP-1R agonist	GLP1R inv ag	miR-21 reporter
COc1ccc(C(c2c(O)cc(C)n(Cc3ccco3)c2=O)N2CCCCC2)cc1OC (stereo not given)	?	–	–	·	–	–
COc1ccc2c(c1)c1c(c(=O)n(Cc3ccccc3)c(=O)n1CC(=O)Nc1ccc(C)cc1C)n2C	–	–	–	–	–	–
O=[N+]([O-])c1ccc(C2CCCC/C2=N\OCc2cccc(F)c2)c([N+](=O)[O-])c1 (stereo not given)	–	–	–	–	10µM	–
CN(CC(=O)Nc1cccc(F)c1)C(=O)c1ccccc1Cc1ccccc1	–	–	–	–	13µM	·
CC(=O)Nc1ccc(S(=O)(=O)N2CCN(S(=O)(=O)c3c(F)cccc3F)CC2)cc1	–	·	·	·	·	·
COc1ccc(/C=N/NC(=O)c2cc(C34CC5CC(CC(C5)C3)C4)[nH]n2)cc1OC	–	–	–	–	–	–
O=C(N/N=C/c1ccc(O)cc1)c1cc(C23CC4CC(CC(C4)C2)C3)[nH]n1	?	–	–	–	1.4µM	–
CCOC(=O)C(c1ccccc1)C(Nc1ccc(F)cc1)c1ccccn1 (stereo not given)	–	–	–	–	10µM	–
O=C1C=CCC(/C=C/c2ccccc2)O1 (stereo not given)	–	–	–	–	2.5µM	–
CCC1([N+](=O)[O-])COC(C=Cc2ccccc2)OC1 (stereo not given)	–	–	–	–	?	·
Nc1nc(NCc2ccc(F)cc2)c2[nH]cnc2n1	–	·	·	·	·	·
Cc1cc2c(s1)c1cnn(Cc3c(F)ccc(F)c3F)c(=O)c1n2C	–	·	·	·	·	·
O=C(CCn1cnc2onc(-c3ccc(F)cc3)c2c1=O)Nc1cccc(C(F)(F)F)c1	–	–	–	·	?	?
O=C(CCn1cnc2onc(-c3ccc(F)cc3)c2c1=O)Nc1ccc(F)c(Cl)c1	–	–	–	·	13µM	?
Cc1sc2nc(C3CC3)nc(N3CCN(C(=O)c4ccccc4F)CC3)c2c1C	–	–	–	–	?	–
COc1ccc(C(=O)N2CCN(c3nc(C4CC4)nc4sc(C)c(C)c34)CC2)cc1	–	–	–	–	?	–
Cc1sc2nc(C3CC3)nc(N3CCN(C(=O)c4ccc(Cl)cc4)CC3)c2c1C	–	–	–	–	8.9µM	–
Cc1sc2nc(C3CC3)nc(N3CCN(C(=O)c4ccc(F)cc4)CC3)c2c1C	–	–	–	–	10µM	–
O=C(C1CCN(c2nc(-c3ccc(Br)cc3)cs2)CC1)N1CCOCC1	–	·	·	·	·	·
COC(=O)c1ccccc1NC(=O)N1c2ccccc2Sc2ccccc21	–	–	–	–	10µM	–
O=C(c1cccc2ccccc12)N1CCN(S(=O)(=O)c2ccccc2)CC1	–	·	·	·	·	·
COc1ccccc1N1CCN(C(=O)c2ccc3c(c2)CCN3S(=O)(=O)c2ccccc2)CC1	–	–	–	–	7.9µM	?
CC1CC=CC2C1C(=O)N(Cc1ccccc1)C2c1ccc(C(F)(F)F)cc1 (stereo not given)	–	·	·	·	·	·
CCOc1ccccc1NC(=O)NCCn1c(=O)oc2ccc(C)cc21	–	–	–	·	–	?
Cc1ccc(C)c(C(=O)COC(=O)c2n[nH]c3ccccc23)c1	–	–	–	–	10µM	·
Cc1cccc(C)c1OCCOC(=O)c1n[nH]c2ccccc12	?	–	–	–	?	–
Cc1cccc(NC(=O)N2C3CCCC2CC(NC(=O)C2CC2)C3)c1 (stereo not given)	–	–	–	–	–	–
O=C(NC1CC2CCCC(C1)N2C(=O)Nc1ccc(Cl)c(C(F)(F)F)c1)C1CC1 (stereo not given)	–	–	–	–	10µM	–
CCc1nn(CC(=O)Nc2ccc(NC(C)=O)cc2)c(=O)c2cc3sccc3n12	–	–	–	·	–	–
COc1ccc(C(C(=O)NC2CCCCC2)N(C(=O)CCl)c2ccc(OC)cc2)cc1 (stereo not given)	–	–	–	–	?	–
